# Yeast mating assay B: variants of the scFv Ab-14

Values reported by Li et al. 2023, doi:10.1038/s41467-023-39022-2 (FLAb copy).

Antigen: PDVDLGDISGINAS, a 14-residue peptide of the SARS-CoV-2 spike HR2 region.

The variants keep the light chain, the linker and the frameworks of Ab-14 (scFv order VH, a 15-residue (Gly4Ser)3 linker, VL).
VH: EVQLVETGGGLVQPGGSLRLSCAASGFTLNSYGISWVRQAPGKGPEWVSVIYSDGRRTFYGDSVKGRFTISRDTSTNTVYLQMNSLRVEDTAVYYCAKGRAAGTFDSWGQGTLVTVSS
VL: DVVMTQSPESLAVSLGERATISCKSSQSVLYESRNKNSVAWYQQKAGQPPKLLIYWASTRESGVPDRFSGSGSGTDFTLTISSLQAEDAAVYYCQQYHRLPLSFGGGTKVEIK

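Phage display of a naive human antibody library on the peptide gave the parent. Designed CDR sequences, proposed from the first random library and measured here. Their group label is 14H_En_Gibbs (En: ensemble of fine-tuned language models; Gibbs: Gibbs sampling). In AlphaSeq, yeast of one mating type display the scFv and yeast of the other type display the target. Mating (16 h, 30 °C) was followed by selection of diploids and sequencing of their barcodes. Read counts were normalised to the haploid input and turned into Kd by a linear fit to BCL2-family pairs of known affinity, for each replicate. Mating was done six times.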

Variants are written as CDR1, CDR2 and CDR3 of the heavy chain (limits as in the source). Parent: GFTLNSYGIS, VIYSDGRRTFYGDSVK, GRAAGTFDS. Affinities are written as log10 Kd with Kd in nM; a lower number is a better binder. "nd" marks a missing value. The strain was present, yet no cells mated with the target were sequenced in that replicate, which points to weak or no binding. Empty control strains, which show no peptide, gave a signal in 1% of pairings with all heavy chain designs; the median was 2.08 and 95% of these signals were weaker than 0.84. No background was subtracted. For each scFv, signals with the empty controls are counted beside the result, with their mean in brackets. Values of this round are not directly comparable with the first-round values of the same sequences. The parent sequence was in this pool as ten entries: three were never detected, three once, and four in most replicates, with averages from 0.34 to 2.37. The authors' rule: three or more of the six replicates give a measured affinity, fewer mean a poor binder.

| CDR-H1 | CDR-H2 | CDR-H3 | log10 Kd, replicates | control signals |
|---|---|---|---|---|
| GFDLQEYGIS | VIYADGKRSMYSNDVK | GAVGLGELL | nd nd nd nd nd nd | 0 of 18 |
| GFNLNEYGIS | VIYADGNRNAYANSFK | GLHANFFII | nd nd nd nd nd nd | 0 of 18 |
| GFDLNEYGIS | VIYADGVRTGYQQQVK | GYHSGGLNQ | nd nd nd nd nd nd | 0 of 18 |
| EFDLQEFGIS | VIYADGKREAYKDDFK | GQVAGTFDL | 2.06 0.44 0.31 0.46 1.16 0.91 | 0 of 18 |
| GFNLEEYGIS | VIYADGMRTKYSDNVK | GHIGNVRVV | nd nd nd nd nd nd | 1 of 18 (1.25) |
| GFDVNEYGIS | VIYADGSRVAILESVK | GKIAGTFFV | nd nd nd nd nd nd | 0 of 18 |
| GFGINEYGIS | VIYADGMRSAYANSVK | GAHAGGIVW | 1.74 nd nd nd nd nd | 0 of 18 |
| GFDLGEYGIS | VIYADGHRRAYADDVK | GMHSGSVQT | nd nd nd nd nd nd | 0 of 18 |
| GFQLEEYGIS | VIYADGSRTEYSDSVK | GKYKFNLIV | nd nd nd nd nd nd | 0 of 18 |
| GKDIEEYGVS | VIYADGKRNAYANKFK | GDNAGSFVD | nd nd nd nd nd nd | 0 of 18 |
| GFNINEYGIS | VIYADGTRTAYANTVK | GKYVDTFVD | nd nd 3.54 nd nd nd | 0 of 18 |
| GMSLMEYGIS | VIYADGRRTAYTDSFK | GGSNKDTFV | nd nd nd nd nd nd | 0 of 18 |
| GMSLDEYGIS | VIYADGMRTFYANTVK | GEDGVFYNQ | nd nd nd nd nd nd | 1 of 18 (2.16) |
| GFDLMEYGVS | VIYADGQRTYYTNKVK | GEISAGFLI | nd nd nd nd nd nd | 0 of 18 |
| GFDIEEYGIS | VIYADGVRAMYKSNFK | GKIAGTYLI | nd nd nd nd nd nd | 0 of 18 |
| GFSLQEYGIS | VIYADGMRTQYTPNVK | GQTGFDYGL | nd nd nd nd nd nd | 0 of 18 |
| GDSLNEYGIS | VIYADGNRSVYTDKVK | GHAGGTFMS | nd nd nd nd nd nd | 0 of 18 |
| GQDLNEYGIS | VIYADGVRTAYAISFK | GYHGSQFDI | nd nd nd nd nd nd | 0 of 18 |
| GFSLDEYGIS | VIYADGMRTAYAQTVK | GYNGSDGDK | nd nd nd nd 2.80 nd | 0 of 18 |
| GENLEEYGIS | VIYADGMREQYSDSVK | GRQGGFFIV | nd nd nd nd nd nd | 0 of 18 |
| GFDLGEYGIS | VIYADGSRSAYATNVK | GGSGYKDDV | nd nd nd nd nd nd | 0 of 18 |
| GFVFDEYGIS | VIYADGKRQFYQDKVK | GENTGNFDI | nd nd nd nd nd nd | 0 of 18 |
| GFQLDEYGIS | VIYADGMRKAYAQNVK | GNLLVIQEG | nd nd nd nd nd nd | 0 of 18 |
| GFTIDEYGIS | VIYADGSRVAYDEKFK | GMLVGTFDQ | nd nd nd nd nd nd | 0 of 18 |
| DFNLNEYGIS | VIYADGQRASYDDKVK | GQISGTFDD | nd nd nd nd nd nd | 1 of 18 (1.04) |
| GFDLEDYGIS | VIYADGVRTAYSDNSK | GENGGALYI | nd nd nd 2.91 3.84 nd | 0 of 18 |
| GFSLDEYGIS | VIYADGHRSFYLDSVK | GIYGNGLWF | nd nd nd nd nd nd | 0 of 18 |
| KENINEYGIS | VIYADGRRTAYTQDVK | GQAGGIIDV | nd nd nd nd nd nd | 0 of 18 |
| GFDIEEYGIS | VIYADGQRTMYKPNVK | GNHTGLVDI | nd nd nd nd nd nd | 0 of 18 |
| GFQLEEYGIS | VIYADGTRTAYLPTVK | GVNGGTFQM | nd nd nd 1.60 1.69 2.39 | 0 of 18 |
| GFDINEYGVS | VIYADGMRTAYTDSVK | GEGQWIALI | nd nd nd nd nd nd | 0 of 18 |

A selection of 3 entries from above:

| CDR-H1 | CDR-H2 | CDR-H3 | log10 Kd, replicates | control signals |
|---|---|---|---|---|
| GFQLEEYGIS | VIYADGTRTAYLPTVK | GVNGGTFQM | nd nd nd 1.60 1.69 2.39 | 0 of 18 |
| GFSLQEYGIS | VIYADGMRTQYTPNVK | GQTGFDYGL | nd nd nd nd nd nd | 0 of 18 |
| GFDLQEYGIS | VIYADGKRSMYSNDVK | GAVGLGELL | nd nd nd nd nd nd | 0 of 18 |